Results from US20070059799A1 (priority 1999, published 2007).

System: A3-supertype alleles
Assay: A3-supertype cross-reactive binding (A*03, A*11, A*3101, A*3301, A*6801)
Set-up: species or system human
Settings: A3-supermotif cross-reactive peptides

Molecule `CC(C)C[C@H](NC(=O)[C@@H](NC(=O)[C@@H](N)Cc1ccccc1)C(C)C)C(=O)NCC(=O)NCC(=O)N[C@@H](CS)C(=O)N[C@@H](CCCNC(=N)N)C(=O)N[C@@H](Cc1c[nH]cn1)C(=O)N[C@@H](CCCCN)C(=O)O` [peptide 1.0219] has an XRN of 3.

Same assay, conditions: number of A3-supertype alleles bound; 3 or more = degenerate

Compared with `CC[C@H](C)[C@H](NC(=O)[C@H](Cc1c[nH]c2ccccc12)NC(=O)[C@@H](NC(=O)CNC(=O)[C@H](Cc1ccccc1)NC(=O)[C@H](CO)NC(=O)[C@@H](NC(=O)[C@@H](N)CC(C)C)C(C)C)C(C)C)C(=O)N[C@@H](CCCNC(=N)N)C(=O)O` [Peptide 1090.08], `CC(C)C[C@H](NC(=O)[C@@H](NC(=O)[C@@H](N)Cc1ccccc1)C(C)C)C(=O)NCC(=O)NCC(=O)N[C@@H](CS)C(=O)N[C@@H](CCCNC(=N)N)C(=O)N[C@@H](Cc1c[nH]cn1)C(=O)N[C@@H](CCCCN)C(=O)O` [peptide 1.0219] is higher in Alleles bound: 1 for the first, 3 for the second.

System: B7-supertype alleles
Assay: B7-supertype cross-reactive binding (B*0702, B*3501, B*51, B*5301, B*5401)
Set-up: species or system human
Settings: B*0702, B*3501, B*51, B*5301, B*5401

With “HBV env 313: B7-like HBV peptide, parent of I9 and F1 analogs (IPIPSSWAF)” the “number of the 5 B7-supertype alleles bound” value was 4.

Same assay, conditions: number of B7-supertype alleles bound; 3 or more = degenerate

Compared with `CC[C@H](C)[C@H](N)C(=O)N1CCC[C@H]1C(=O)N[C@@H](CCC(N)=O)C(=O)N[C@@H](CO)C(=O)N[C@@H](CC(C)C)C(=O)N[C@@H](CC(=O)O)C(=O)N[C@@H](CO)C(=O)N[C@@H](Cc1c[nH]c2ccccc12)C(=O)N[C@@H](Cc1c[nH]c2ccccc12)C(=O)O` [Peptide 15.0030], `CC(C)C[C@H](NC(=O)[C@H](CC(C)C)NC(=O)[C@H](Cc1ccccc1)NC(=O)[C@@H]1CCCN1C(=O)[C@@H](N)CO)C(=O)N[C@@H](C)C(=O)N[C@@H](CCC(N)=O)C(=O)N[C@@H](Cc1ccccc1)C(=O)N[C@H](C(=O)N[C@@H](CO)C(=O)N[C@@H](C)C(=O)O)[C@@H](C)O` [Peptide 26.0566] is higher in Alleles bound: 1 for the first, 2 for the second.

`CC[C@H](C)[C@H](NC(=O)[C@@H]1CCCN1C(=O)[C@@H](N)CC(C)C)C(=O)N[C@@H](Cc1ccccc1)C(=O)N[C@@H](Cc1ccccc1)C(=O)N[C@@H](CS)C(=O)N[C@@H](CC(C)C)C(=O)N[C@@H](Cc1c[nH]c2ccccc12)C(=O)N[C@H](C(=O)O)C(C)C` [Peptide 15.0034] and `CC[C@H](C)[C@H](NC(=O)[C@@H]1CCCN1C(=O)[C@@H](N)CC(C)C)C(=O)N[C@@H](Cc1ccccc1)C(=O)N[C@@H](Cc1ccccc1)C(=O)N[C@@H](CS)C(=O)N[C@@H](CC(C)C)C(=O)N[C@@H](Cc1c[nH]c2ccccc12)C(=O)O` [Peptide 19.0007] are the same in Alleles bound: 2 for the first, 2 for the second.

Compared with `CC(C)C[C@H](NC(=O)[C@H](CCC(N)=O)NC(=O)[C@H](Cc1c[nH]cn1)NC(=O)[C@H](CC(=O)O)NC(=O)[C@@H]1CCCN1C(=O)[C@@H](N)Cc1ccccc1)C(=O)N[C@@H](CC(=O)O)C(=O)N1CCC[C@H]1C(=O)N[C@@H](C)C(=O)O` [Peptide 16.0006], `CSCC[C@H](N)C(=O)N1CCC[C@H]1C(=O)N[C@@H](CC(C)C)C(=O)N[C@@H](CO)C(=O)N[C@@H](Cc1ccc(O)cc1)C(=O)N[C@@H](CCC(N)=O)C(=O)N[C@@H](Cc1c[nH]cn1)C(=O)N[C@@H](Cc1ccccc1)C(=O)O` [Peptide 19.0010] is higher in Alleles bound: 1 for the first, 2 for the second.

`CC[C@H](C)[C@H](NC(=O)[C@@H]1CCCN1C(=O)[C@@H](N)CC(C)C)C(=O)N[C@@H](Cc1c[nH]cn1)C(=O)N[C@H](C(=O)N[C@@H](C)C(=O)N[C@@H](CCC(=O)O)C(=O)N[C@@H](CC(C)C)C(=O)N[C@@H](CC(C)C)C(=O)N[C@@H](C)C(=O)O)[C@@H](C)O` [Peptide 16.0181] and `CC[C@H](C)[C@H](NC(=O)[C@@H]1CCCN1C(=O)[C@@H](N)CC(C)C)C(=O)N[C@@H](Cc1c[nH]cn1)C(=O)N[C@H](C(=O)N[C@@H](C)C(=O)N[C@@H](CCC(=O)O)C(=O)N[C@@H](CC(C)C)C(=O)N[C@@H](CC(C)C)C(=O)N[C@@H](C)C(=O)N[C@@H](C)C(=O)O)[C@@H](C)O` [Peptide 26.0359] are the same in Alleles bound: 1 for the first, 1 for the second.

First: CC[C@H](C)[C@H](N)C(=O)N1CCC[C@H]1C(=O)N[C@H](C(=O)N1CCC[C@H]1C(=O)N[C@@H](CO)C(=O)N[C@@H](CO)C(=O)N[C@@H](Cc1c[nH]c2ccccc12)C(=O)N[C@@H](C)C(=O)O)[C@@H](C)CC [Peptide 19.0005]
Second: CSCC[C@H](NC(=O)[C@H](C)NC(=O)[C@H](C)NC(=O)[C@@H]1CCCN1C(=O)[C@@H](N)Cc1c[nH]cn1)C(=O)N1CCC[C@H]1C(=O)N[C@@H](Cc1c[nH]cn1)C(=O)N[C@@H](CC(C)C)C(=O)O [Peptide 19.0011]
The Alleles bound of the first is lower: 1 for the first, 2 for the second.

Going from `CC(C)C[C@H](NC(=O)[C@H](CC(C)C)NC(=O)[C@H](Cc1ccccc1)NC(=O)[C@@H]1CCCN1C(=O)[C@@H](N)CO)C(=O)N[C@@H](C)C(=O)N[C@@H](CCC(N)=O)C(=O)N[C@@H](Cc1ccccc1)C(=O)O` [Peptide 19.0012] to `CSCC[C@H](NC(=O)[C@H](CC(C)C)NC(=O)[C@H](C)NC(=O)[C@@H]1CCCN1C(=O)[C@@H](N)Cc1ccc(O)cc1)C(=O)N1CCC[C@H]1C(=O)N[C@@H](CC(C)C)C(=O)N[C@@H](Cc1ccc(O)cc1)C(=O)O` [Peptide 19.0014], the Alleles bound rises from 2 to 3.

Compared with `CSCC[C@H](NC(=O)[C@H](C)NC(=O)[C@H](C)NC(=O)[C@@H]1CCCN1C(=O)[C@@H](N)Cc1c[nH]cn1)C(=O)N1CCC[C@H]1C(=O)N[C@@H](Cc1c[nH]cn1)C(=O)N[C@@H](CC(C)C)C(=O)N[C@@H](CC(C)C)C(=O)N[C@H](C(=O)O)C(C)C` [Peptide 20.0273], `CC[C@H](C)[C@H](NC(=O)[C@H](CS)NC(=O)[C@H](C)NC(=O)[C@H](Cc1ccc(O)cc1)NC(=O)[C@H](CC(C)C)NC(=O)[C@@H]1CCCN1C(=O)[C@H](CCSC)NC(=O)[C@H](CC(C)C)NC(=O)[C@H](C)NC(=O)[C@@H]1CCCN1C(=O)[C@@H](N)Cc1ccc(O)cc1)C(=O)O` [peptide 26.0570] is higher in Alleles bound: 1 for the first, 3 for the second.

System: common HLA-DR alleles
Assay: HLA-DR cross-reactive binding, sequential screening panels of DR assays
Set-up: species or system human
Settings: primary through tertiary DR panels

Compared with `CC[C@H](C)[C@H](NC(=O)[C@H](Cc1c[nH]c2ccccc12)NC(=O)[C@@H](NC(=O)CN)C(C)C)C(=O)N[C@@H](CCCNC(=N)N)C(=O)N[C@H](C(=O)N1CCC[C@H]1C(=O)N1CCC[C@H]1C(=O)N[C@@H](C)C(=O)N[C@@H](Cc1ccc(O)cc1)C(=O)N[C@@H](CCCNC(=N)N)C(=O)N1CCC[C@H]1C(=O)N1CCC[C@H]1C(=O)N[C@@H](CC(N)=O)C(=O)N[C@@H](C)C(=O)O)[C@@H](C)O` [27.0280], `CC(C)C[C@H](NC(=O)[C@H](C)NC(=O)[C@H](CO)NC(=O)[C@@H]1CCCN1C(=O)[C@@H](NC(=O)[C@H](Cc1ccc(O)cc1)NC(=O)[C@@H](NC(=O)[C@H](Cc1ccccc1)NC(=O)[C@H](CO)NC(=O)[C@@H](NC(=O)CN)[C@@H](C)O)C(C)C)C(C)C)C(=O)N[C@@H](CC(N)=O)C(=O)N1CCC[C@H]1C(=O)N[C@@H](C)C(=O)N[C@@H](CC(=O)O)C(=O)O` [Peptide 1280.09] is higher in “Total DR alleles bound” value: 8 for the first, 9 for the second.

Compared with `CC[C@H](C)[C@H](NC(=O)CNC(=O)[C@H](C)NC(=O)[C@H](CCCCN)NC(=O)[C@H](Cc1c[nH]c2ccccc12)NC(=O)[C@H](CC(C)C)NC(=O)[C@@H](NC(=O)[C@H](Cc1c[nH]cn1)NC(=O)[C@H](CC(C)C)NC(=O)[C@H](Cc1ccc(O)cc1)NC(=O)[C@H](Cc1c[nH]cn1)NC(=O)[C@@H](N)CCCNC(=N)N)[C@@H](C)O)C(=O)N[C@@H](CC(C)C)C(=O)N[C@@H](Cc1ccc(O)cc1)C(=O)N[C@@H](CCCCN)C(=O)O` [Peptide 27.0281], `CC[C@H](C)[C@H](NC(=O)[C@H](CCCCN)NC(=O)[C@H](CCCNC(=N)N)NC(=O)[C@H](Cc1ccccc1)NC(=O)CNC(=O)[C@H](CC(C)C)NC(=O)[C@@H](NC(=O)[C@@H](NC(=O)[C@@H]1CCCN1C(=O)[C@H](Cc1c[nH]cn1)NC(=O)[C@H](CO)NC(=O)[C@H](Cc1ccc(O)cc1)NC(=O)[C@H](CC(C)C)NC(=O)[C@H](Cc1c[nH]cn1)NC(=O)[C@@H](N)CC(C)C)[C@@H](C)CC)[C@@H](C)CC)C(=O)O` [Peptide 1280.15] is lower in “Total DR alleles bound” value: 8 for the first, 7 for the second.

`CC(C)C[C@H](NC(=O)CNC(=O)[C@@H](NC(=O)[C@H](Cc1ccccc1)NC(=O)[C@H](Cc1c[nH]c2ccccc12)NC(=O)[C@H](CCC(N)=O)NC(=O)[C@@H](NC(=O)[C@H](Cc1ccccc1)NC(=O)[C@@H]1CCCN1C(=O)[C@@H](NC(=O)[C@@H](N)CC(C)C)C(C)C)C(C)C)C(C)C)C(=O)N[C@@H](CO)C(=O)N1CCC[C@H]1C(=O)N[C@H](C(=O)N[C@H](C(=O)O)C(C)C)[C@@H](C)O` [Peptide 1186.15] and `CC[C@H](C)[C@H](NC(=O)[C@H](Cc1c[nH]c2ccccc12)NC(=O)[C@H](CC(N)=O)NC(=O)[C@H](C)NC(=O)[C@H](C)N)C(=O)N[C@@H](CC(C)C)C(=O)N[C@@H](CCCNC(=N)N)C(=O)NCC(=O)N[C@H](C(=O)N[C@@H](CO)C(=O)N[C@@H](Cc1ccccc1)C(=O)N[C@H](C(=O)N[C@@H](Cc1ccc(O)cc1)C(=O)N[C@H](C(=O)N1CCC[C@H]1C(=O)O)C(C)C)C(C)C)[C@@H](C)O` [Peptide 1298.07] are the same in “Total DR alleles bound” value: 7 for the first, 7 for the second.

Compared with `CC[C@H](C)[C@H](NC(=O)[C@H](CCCNC(=N)N)NC(=O)[C@@H](NC(=O)[C@H](CC(C)C)NC(=O)[C@H](CC(C)C)NC(=O)[C@H](Cc1ccccc1)NC(=O)[C@H](Cc1ccccc1)NC(=O)CNC(=O)[C@H](C)N)[C@@H](C)O)C(=O)N[C@@H](CC(C)C)C(=O)N[C@H](C(=O)N[C@H](C(=O)N1CCC[C@H]1C(=O)N[C@@H](CCC(N)=O)C(=O)N[C@@H](CO)C(=O)O)[C@@H](C)CC)[C@@H](C)O` [Peptide 1280.06], `CC(C)C[C@H](NC(=O)[C@H](Cc1ccccc1)NC(=O)[C@H](C)NC(=O)[C@H](CCCCN)NC(=O)[C@H](Cc1ccc(O)cc1)NC(=O)[C@@H](NC(=O)[C@@H]1CCCN1C(=O)[C@H](CO)NC(=O)[C@H](Cc1ccccc1)NC(=O)[C@@H](NC(=O)[C@H](Cc1ccccc1)NC(=O)[C@H](C)NC(=O)[C@H](CCC(N)=O)NC(=O)[C@@H](N)CCCCN)[C@@H](C)O)[C@@H](C)O)C(=O)N[C@@H](CS)C(=O)O` [Peptide 1293.06] is higher in “Total DR alleles bound” value: 9 for the first, 10 for the second.

With `CC[C@H](C)[C@H](NC(=O)[C@@H]1CCCN1C(=O)[C@H](CCCNC(=N)N)NC(=O)[C@H](CC(N)=O)NC(=O)[C@@H](NC(=O)[C@@H]1CCCN1C(=O)[C@H](CC(C)C)NC(=O)[C@H](CCCCN)NC(=O)[C@H](CCCNC(=N)N)NC(=O)[C@H](Cc1ccccc1)NC(=O)[C@H](CS)NC(=O)[C@H](CCC(N)=O)NC(=O)[C@@H](N)CCCCN)C(C)C)C(=O)N[C@@H](CC(=O)O)C(=O)N[C@@H](Cc1c[nH]c2ccccc12)C(=O)O` [Peptide 1298.04] the “Total DR alleles bound” value was 7.
